Experiments:
[1] = tested on: 5-HT4 receptor (Rattus norvegicus); experiment: Antagonistic activity against 5-hydroxytryptamine 4 receptor
[2] = tested on: 5-HT4 receptor (Rattus norvegicus); experiment: Agonistic activity against 5-hydroxytryptamine 4 receptor

SMILES	pKb [1]	Intrinsic activity [2]
CCN1CCN(CCNC(=O)n2c(=O)n(CC)c3ccccc32)CC1	6.89	< 0.3
CC(C)n1c(=O)n(C(=O)NCCN2CCN(C)CC2)c2cc(F)c([N+](=O)[O-])cc21	< 6	< 0.3
CN1CCN(CCNC(=O)n2c(=O)n(CCc3ccccc3)c3ccccc32)CC1	< 6	< 0.3
CN1CCN(CCNC(=O)n2c(=O)n(C3CC3)c3ccccc32)CC1	7.24	0.36
CC(C)N1CCN(CCNC(=O)n2c(=O)n(C(C)C)c3ccccc32)CC1	< 6	0.66
CCCN1CCN(CCNC(=O)n2c(=O)n(CC)c3ccccc32)CC1	7.63	< 0.3
Cn1cc(C(=O)OCC2CCN(CCNS(C)(=O)=O)CC2)c2ccccc21	9.49	
CC(C)n1c(=O)n(C(=O)NCCN2CCN(CCCOc3ccc(F)cc3)CC2)c2ccccc21	6.11	0.78
CC(C)N1CCN(CCNC(=O)n2c(=O)n(C3CC3)c3ccccc32)CC1	7.38	< 0.3
CC(C)n1c(=O)n(C(=O)NCCN2CCN(Cc3ccc(F)cc3)CC2)c2ccccc21	< 6	0.78
CCCCN1CCN(CCNC(=O)n2c(=O)n(C(C)C)c3ccccc32)CC1	7.94	< 0.3
Cc1cccc2c1n(C(C)C)c(=O)n2C(=O)NCCN1CCN(C)CC1	< 6	< 0.3
CC(C)n1c(=O)n(C(=O)NCN2CCN(C)CC2)c2ccccc21	< 6	< 0.3
CCn1c(=O)n(C(=O)NCCN2CCN(C(C)C)CC2)c2ccccc21	7.42	< 0.3
CC(C)n1c(=O)n(C(=O)NC2CC3CCC(C2)N3C)c2ccccc21 (centres undefined)	< 6	0.7
